Experimental data: EP1435941B1 (ARIZONA BOARD OF REGENTS on behalf of THE UNIVERSITY OF …, priority 2001, dated 2003)

Tested on: C57BL6 mice
Conditions: percent decrease in lymphocyte counts at the MTD or highest dose tested, wortmannin as 1.0

Question: For `COC[C@H]1OC(=O)C(=CN(C)Cc2ccccc2)C2=C(O)C(=O)C3=C([C@H](OC(C)=O)C[C@]4(C)C(=O)CC[C@@H]34)[C@]21C` [DJM2-181, Acetic acid 4-[(benzylmethylamino)methylene]-6-hydroxy-1α-methoxymethyl-10β,13β-dimethyl-3,7,17-trioxo-1,3,4,7,10,11β,12,13, 14α,15,16,17-dodecahydro-2-oxa-cyclopenca[a]phenanthren-11-yl ester], which “Lymphocyte toxicity relative to wortmannin” value is on record?
Answer: 1.9
